The list shows a part of the results, in another mix than the full data. Calls of active or inactive are those of the source. Cut-off read from the data, not from the text of the source: active = activity change above about 30% (passing the limit was not always enough); inactive = the rest.

Chains of the proteins cited; added tags and fusions are not shown.
UniProt P41235, whole entry: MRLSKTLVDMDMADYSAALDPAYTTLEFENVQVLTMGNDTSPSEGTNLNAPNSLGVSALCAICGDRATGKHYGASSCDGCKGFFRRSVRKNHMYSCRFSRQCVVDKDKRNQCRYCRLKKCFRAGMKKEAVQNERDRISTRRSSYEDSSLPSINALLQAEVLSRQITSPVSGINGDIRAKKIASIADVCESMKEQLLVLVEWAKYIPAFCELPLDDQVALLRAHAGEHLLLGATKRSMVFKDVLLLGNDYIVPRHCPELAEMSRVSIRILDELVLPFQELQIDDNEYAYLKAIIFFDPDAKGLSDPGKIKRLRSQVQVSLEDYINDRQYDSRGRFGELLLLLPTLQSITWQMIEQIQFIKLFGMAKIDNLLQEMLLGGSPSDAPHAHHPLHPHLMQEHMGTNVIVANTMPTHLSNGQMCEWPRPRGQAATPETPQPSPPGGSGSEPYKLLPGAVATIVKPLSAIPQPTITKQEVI

The target in the experiment is Hepatocyte nuclear factor 4-alpha (Homo sapiens) (UniProt P41235). The experiment in a line: HNF4-alpha DNA association modulation – biochemical, fluorescence polarization, FITC-DNA, primary screen (AID 1224865). Particulars: HNF4a-FITC DNA binding, 1 h, at 10 µM, active compounds read high. In general terms: In fluorescence polarisation assays a small probe gives low polarisation when free and higher when bound to something large.
For the compound `CCC(=O)N(c1ccccc1)C1(COC)CCN(CCc2cccs2)CC1`, the activity change was inactive: 0.24%.

In the case of `CCC(=O)N(c1ccccc1)C1(COC)CCN(CCn2nnn(CC)c2=O)CC1`, the activity change is inactive: 0.79%.

For the origin of these results see PubChem BioAssay AID1224865 (Sanford-Burnham Center for Chemical Genomics, 2016).
